scFv variants of Ab-14 (heavy chain) against a SARS-CoV-2 spike peptide

The target is the same throughout: PDVDLGDISGINAS, from the HR2 region of SARS-CoV-2 spike.

Parent scFv Ab-14: VH joined to VL by three GGGGS repeats. Changes lie in the heavy chain CDRs alone.
VH: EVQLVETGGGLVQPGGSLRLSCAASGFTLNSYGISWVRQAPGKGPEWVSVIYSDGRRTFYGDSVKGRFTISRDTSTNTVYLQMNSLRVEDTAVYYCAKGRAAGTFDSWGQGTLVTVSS
VL: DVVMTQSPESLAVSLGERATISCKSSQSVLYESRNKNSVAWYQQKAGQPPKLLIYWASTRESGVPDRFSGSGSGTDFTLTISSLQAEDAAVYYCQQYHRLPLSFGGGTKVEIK

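Phage display of a naive human antibody library on the peptide gave the parent. Designed CDR sequences, proposed from the first random library and measured here. Their group label is 14H_En_Gen (En: ensemble of fine-tuned language models; Gen: genetic algorithm). The assay is AlphaSeq: two haploid yeast populations carry antibody and antigen on their surface. Mating (16 h, 30 °C) was followed by selection of diploids and sequencing of their barcodes. Read counts were normalised to the haploid input and turned into Kd by a linear fit to BCL2-family pairs of known affinity, for each replicate. Mating was done six times.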

Each variant is given by its three heavy chain CDRs, as the data file delimits them; those of the parent are GFTLNSYGIS, VIYSDGRRTFYGDSVK, GRAAGTFDS.
Scale: log10 of Kd in nM, estimated from mating counts; low values are strong binders.
"nd" means that the variant was in the library but no mating with the target was seen in that replicate; the authors take this as a sign of poor binding, and no number exists.

CDR-H1 | CDR-H2 | CDR-H3 | log10 Kd, replicates | empty controls
GFDLDEYGIS | VIYADGRRTAYSDSVK | GNQAGTFDI | nd 1.26 1.82 1.95 2.29 1.52 | 0 of 18
GFDLNEYGIS | VIYADGMRTAYKDSVK | GENAGTFDV | -0.16 -0.10 -0.12 -0.43 0.07 -0.18 | 0 of 18
GFDLNEYGIS | VIYADGKRTAYADDVK | GENAGTFDV | -0.40 -0.26 -0.40 -0.41 -0.27 -0.34 | 0 of 18
GFDLNEYGIS | VIYADGKRTAYADSVK | GENAGTFVV | nd nd nd nd nd nd | 0 of 18
GFDLNEYGIS | VIYADGMRTAYADDVK | GNEAGTFDV | -0.31 -0.59 -0.30 -0.68 -0.40 -0.56 | 0 of 18
GFDLNEYGIS | VIYADGSRTAYADSVK | GNEAGTFDV | -0.36 -0.30 -0.30 -0.27 -0.32 -0.52 | 0 of 18
GFDLDEYGIS | VIYADGVRTAYADSVK | GEVAGTFDQ | -0.27 -0.06 -0.52 0.06 -0.46 -0.06 | 0 of 18
GFDLDEYGIS | VIYADGVRTAYTDSVK | GNVAGTFDI | -0.05 0.04 -0.31 -0.44 0.09 -0.18 | 1 of 18 (2.37)
GFDLNEYGIS | VIYADGMRTAYIDSVK | GETAGTFDQ | -0.31 -0.74 0.22 -0.02 -0.06 -0.31 | 0 of 18
GFDLDEYGIS | VIYADGMRKAYADSVK | GNNAGTFDI | -0.77 nd nd 0.11 -0.59 -0.52 | 0 of 18
GFDLDEYGIS | VIYADGVRTAYVDSVK | GNNAGTFDV | -0.50 -0.51 -0.95 -1.05 -0.61 -1.03 | 0 of 18
GFDLNEYGIS | VIYADGRRTAYQDSVK | GENAGTFDV | -0.42 -0.16 0.46 -0.31 -0.41 0.30 | 0 of 18
GFDLNEYGIS | VIYADGVRTAYVDSVK | GNNAGTFDV | -0.19 -0.45 0.23 -0.29 -0.40 -0.23 | 0 of 18
GFDLDEYGIS | VIYADGKRTAYSDSVK | GNNAGTFDI | 0.54 0.88 0.32 0.46 0.30 0.92 | 1 of 18 (3.29)
GFDLNEYGIS | VIYADGQRTFYADSVK | GETAGTFDV | -0.26 -0.62 -0.72 -0.76 -1.01 -0.58 | 0 of 18
GFDLDEYGIS | VIYADGMRTAYIDSVK | GENAGTFDL | -0.45 -0.12 0.06 -0.50 -0.75 0.62 | 0 of 18
GFDLDEYGIS | VIYADGVRTAYADDVK | GNVAGTFDL | -0.40 -0.61 -0.57 -0.69 -0.64 -0.73 | 0 of 18
GFDLDEYGIS | VIYADGKRTAYSDSVK | GQNAGTFDL | -0.10 -0.30 -0.33 -0.52 -0.47 -0.20 | 0 of 18
GFDLDEYGIS | VIYADGSRTAYADSVK | GNVAGTFDL | -0.82 -0.25 -0.72 -0.50 -0.74 -0.48 | 0 of 18
GFDLDEYGIS | VIYADGQRTAYSDSVK | GETAGTFDV | -0.62 -0.67 -0.21 -0.08 -0.47 -0.40 | 0 of 18
GFDLNEYGIS | VIYADGLRTAYVDSVK | GNVAGTFDL | -0.09 -0.41 -0.51 -0.73 -0.50 -0.14 | 1 of 18 (2.27)
GFDLDEYGIS | VIYADGMRKYYADSVK | GNVAGTFDV | -0.54 -0.59 -0.73 -1.10 -0.85 -0.77 | 0 of 18
GFDLNEYGIS | VIYADGVRTAYIDSVK | GENAGTFDV | -0.50 -0.78 -0.86 -0.46 -0.81 -1.14 | 0 of 18
GFDLNEYGIS | VIYADGMRKAYADSVK | GEVAGTFDL | -0.33 -0.46 -0.57 -0.66 -0.58 -0.44 | 1 of 18 (1.98)
GFDLNEYGIS | VIYADGMRTAYSDNVK | GNQAGTFDV | -0.62 -0.77 -0.68 -0.79 -0.79 -0.44 | 0 of 18
GFDLEEYGIS | VIYADGRRTAYSDSVK | GNVAGTFDV | -0.30 -0.64 -0.51 -0.61 -0.65 -0.41 | 0 of 18
GFDLNEYGIS | VIYADGMRTVYADSVK | GETAGTFDL | -0.20 -0.57 0.07 1.01 0.08 0.35 | 0 of 18
GFDLNEYGIS | VIYADGVRTAYSDDVK | GNQAGTFDV | -0.30 -0.41 -0.26 -0.52 -0.46 -0.39 | 0 of 18
GFDLNEYGIS | VIYADGRRTAYADDVK | GNTAGTFDV | -0.06 -0.28 -0.44 -0.46 -0.41 -0.24 | 0 of 18
GFDLNEYGIS | VIYADGMRTAYANSVK | GNQAGTFDV | 1.11 0.38 1.42 0.20 0.20 0.86 | 0 of 18
GFDLNEYGIS | VIYADGMRTSYADDVK | GNVAGTFDV | -0.42 -0.01 -1.04 -1.02 -0.75 -0.17 | 0 of 18
GFDLNEYGIS | VIYADGMRTAYADDVK | GETAGTFDV | -0.60 -0.46 -0.58 -0.57 -0.31 -0.30 | 0 of 18
GFDLNEYGIS | VIYADGMRTSYIDSVK | GNQAGTFDV | -0.27 -0.45 -0.33 -0.86 -0.90 0.18 | 0 of 18
GFDLNEYGIS | VIYADGRRTAYADSVK | GNEAGTFDT | -0.38 -0.34 -0.53 -0.58 -0.31 -0.32 | 0 of 18
GFDLNEYGIS | VIYADGRRTAYADSVK | GNEAGTFDL | -0.38 -0.19 -1.04 -0.83 -0.82 -0.25 | 0 of 18

Empty control strains, which show no peptide, gave a signal in 1% of pairings with all heavy chain designs; the median was 2.08 and 95% of these signals were weaker than 0.84. No background was subtracted. The control count says in how many pairings with the empty strains this scFv gave a signal, with their mean in brackets.
The authors' rule: three or more of the six replicates give a measured affinity, fewer mean a poor binder.
A sequence measured in both rounds can read differently, since the two assays cover different ranges.
Of ten entries with the parent sequence, four were seen in most replicates (averages 0.34 to 2.37), three in one and three in none, so single entries are noisy.

From the AlphaSeq antibody data of Li et al. 2023 (doi:10.1038/s41467-023-39022-2), copy in the FLAb collection.